Data: patent US6025385A, “Taxane derivatives and drugs containing the same” (Kabushiki Kaisha Yakult Honsha, priority 1996, dated 2000)

Assay: Solubility in water (HPLC, shaken 2 hours at room temperature)
Details: amount in 100 μl injected, purified water

For `CC(=O)O[C@H]1C(=O)[C@@]2(C)[C@H]([C@H](OC(=O)c3ccccc3)[C@]3(O)C[C@H](OC(=O)[C@H](O)[C@@H](NC(=O)c4ccccc4)c4ccccc4)C(C)=C1C3(C)C)[C@]1(OC(C)=O)CO[C@@H]1C[C@@H]2O` [Taxol, reference compound], which “Dissolved amount (Y) of Taxol” value is on record?
Its value is 0.04 μg/100 μl.
